Here are results for 1 compound from patent publication US10919911B2, “Tricyclic ASK1 inhibitors” (Terns, Inc., priority 2018, dated 2021).

Sequences of proteins named here, by UniProt entry; tags and fusion partners are left off.
UniProt Q99683, whole entry: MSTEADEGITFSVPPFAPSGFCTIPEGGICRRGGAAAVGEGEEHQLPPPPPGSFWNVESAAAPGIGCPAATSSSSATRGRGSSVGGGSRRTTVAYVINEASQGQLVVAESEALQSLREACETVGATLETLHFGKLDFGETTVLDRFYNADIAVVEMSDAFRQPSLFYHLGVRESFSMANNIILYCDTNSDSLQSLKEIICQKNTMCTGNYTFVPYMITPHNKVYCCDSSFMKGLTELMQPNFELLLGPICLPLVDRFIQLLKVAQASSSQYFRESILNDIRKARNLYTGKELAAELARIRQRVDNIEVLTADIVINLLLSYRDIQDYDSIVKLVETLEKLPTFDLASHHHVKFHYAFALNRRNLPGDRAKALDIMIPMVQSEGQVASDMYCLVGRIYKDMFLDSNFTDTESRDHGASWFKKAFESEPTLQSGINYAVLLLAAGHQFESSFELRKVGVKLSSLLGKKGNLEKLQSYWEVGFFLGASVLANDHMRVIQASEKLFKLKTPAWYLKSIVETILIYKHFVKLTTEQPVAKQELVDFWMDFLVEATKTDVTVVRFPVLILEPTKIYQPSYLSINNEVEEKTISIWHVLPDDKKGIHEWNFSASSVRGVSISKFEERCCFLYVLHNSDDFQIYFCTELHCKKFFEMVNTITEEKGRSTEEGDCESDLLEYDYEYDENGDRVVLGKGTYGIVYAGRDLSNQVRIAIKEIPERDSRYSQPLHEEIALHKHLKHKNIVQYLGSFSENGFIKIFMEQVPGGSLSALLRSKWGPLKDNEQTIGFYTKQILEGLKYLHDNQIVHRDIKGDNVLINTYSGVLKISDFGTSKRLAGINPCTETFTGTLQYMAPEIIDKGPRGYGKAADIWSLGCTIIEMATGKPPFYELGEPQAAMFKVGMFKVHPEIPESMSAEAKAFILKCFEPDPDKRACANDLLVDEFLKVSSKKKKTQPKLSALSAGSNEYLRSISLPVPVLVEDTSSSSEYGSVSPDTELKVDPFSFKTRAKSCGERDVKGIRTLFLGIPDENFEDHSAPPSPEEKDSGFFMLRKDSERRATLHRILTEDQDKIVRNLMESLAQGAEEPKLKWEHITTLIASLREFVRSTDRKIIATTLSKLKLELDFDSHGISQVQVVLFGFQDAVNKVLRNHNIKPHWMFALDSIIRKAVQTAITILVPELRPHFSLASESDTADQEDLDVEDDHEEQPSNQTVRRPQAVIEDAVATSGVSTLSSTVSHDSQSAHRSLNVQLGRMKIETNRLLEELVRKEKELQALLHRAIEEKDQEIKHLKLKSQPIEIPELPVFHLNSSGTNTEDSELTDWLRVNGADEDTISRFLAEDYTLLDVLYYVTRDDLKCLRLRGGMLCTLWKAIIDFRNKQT

The target of the test is ASK1 kinase (Homo sapiens (Human), UniProt Q99683). The test can be described thus: RBC Kinase Assay (33P-ATP radiometric, myelin basic protein substrate). The settings on record: 20 ng ASK1 kinase, MBP substrate, 120 min at room temperature, 1% DMSO. As for the experimental part: Example B1. RBC Kinase Assay Protocol
Base Reaction buffer: 20 mM Hepes (pH 7.5), 10 mM MgCl2, 1 mM EGTA, 0.02% Brij35, 0.02 mg/ml BSA, 0.1 mM Na3VO4, 2 mM DTT, and 1% DMSO were used for the assay.
Myelin base protein (MPB) was prepared in freshly prepared Base Reaction Buffer. 20 ng of ASK1 kinase was delivered into the substrate solution and gently mixed. Compounds in DMSO were delivered into the kinase reaction mixture (final DMSO concentration 1%). Commercially available 33P-ATP was delivered into the reaction mixture to initiate the reaction. The kinase reaction was incubated for 120 min. at room temperature. Reactions were spotted onto P81 ion exchange paper (Whatman #3698-915). Filters were washed extensively in 0.75% Phosphoric acid. Radioactivity on filters was read, and IC50 values were determined.

SMILES strings stand for the structures.

With `C[C@@H]1Cn2nnnc2-c2cccc(NC(=O)c3cc(-n4cnc(C5CC5)c4)ccn3)c2O1`, the 50% inhibitory concentration (IC50) (as a rule, the concentration at which inhibition is half-maximal) amounted to 24.7 nM.
